Where a name gives a salt, the structure may show the parent alone.
Experiments:
inflamed knee joint = conditions: rat, in vivo
FCA-induced hyperalgesia = conditions: i. pl.

Compound	blockade of the hyperalgesia produced by inflammation of the knee (inflamed knee joint)	compression evoked increase in BP (inflamed knee joint)	cuff-evoked increase in BP (inflamed knee joint)	effect upon resting blood pressure (inflamed knee joint)	reversal of IA effect by pretreatment with naloxone (inflamed knee joint)	FCA-Induced Inflammation % Increase Over Baseline (FCA-induced hyperalgesia) [%]	FCA-Induced Inflammation ED50 (FCA-induced hyperalgesia) [μg i. pl.]
D-ala^2D-leu^5-enkephalin [DADL]	failure	effectively blocked	–	–	–	–	–
CN1CC[C@]23c4c5ccc(O)c4O[C@H]2[C@@H](O)C=C[C@H]3[C@H]1C5.O=S(=O)(O)O [morphine, morphine sulfate]	–	effectively blocked	dose dependent blockage	no effect	similarly reversed	–	–
CN(C)C(=O)C(CCN1CCC(O)(c2ccc(Cl)cc2)CC1)(c1ccccc1)c1ccccc1 [Ioperamide]	–	–	–	–	–	108	21
CN(C)C(=O)C(CCN1CCC(O)(c2ccc(Cl)cc2)CC1)(c1ccccc1)c1ccccc1 [loperamide, 4-(p-chlorophenyl)-4-hydroxy-N-N-dimethyl-α,α-diphenyl-1-piperidinebutyramide hydrochloride]	–	–	dose dependent blockage	no effect	reversed	–	–
[D-Pen^2, D-Pen^5]enkephalin [DPDPE]	failure	effectively blocked	–	–	–	–	–

Reference: US6573282B1 (priority 1995, dated 2003)
